Measured values published in ChEMBL document CHEMBL1134792, “Antimitotic antitumor agents: synthesis, structure-activity relationships, and biological characterization of N-aryl-N'-(2-chloroethyl)ureas as new selective alkylating agents” (J Med Chem, 2001).

Legend:
Assay type in all cases: functional, cell-based
MDA-MB-231 = test: Dose required to inhibit cell growth was determined against MDA-MB-231 cell line of human non-hormone dependent breast carcinoma; NA= Not active represents IC50 >400 uM
How it was run: (§1)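 Alamar Blue growth-inhibition assay. Cells ((1–5) × 10³ per well) were preincubated for 24 h, then exposed to increasing drug concentrations for 72 h at 37 °C. Alamar Blue (20%) was added and fluorescence read at ex 485 / em 590 nm. IC50 is the dose inhibiting growth by 50%. Means of ≥3 independent determinations.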

LoVo = test: Dose required to inhibit cell growth was determined against LoVo cell line of human adenocarcinoma; NA= Not active represents IC50 >400 uM; how it was run: as §1
P388 = test: Dose required to inhibit cell growth was determined against P388D1 cell line of murine lymphocytotic leukemia; NA= Not active represents IC50 >400 uM; details: Mus musculus; how it was run: as §1

Measured: NA

O=c1oc(NCCCl)nc2cc(Cl)ccc12
inactive: MDA-MB-231 | LoVo | P388

Active and inactive are the calls of the source.
